The list shows a part of the results, in another mix than the full data. Records with an inconclusive call do not appear. Active and inactive are the calls of the source. Calls come from the whole dose curve; as a rule, active = well fitted inhibition curve with a large enough effect; inconclusive = small, poorly fitted or top-dose-only effect, or effect the other way; inactive = flat fitted curve, though single readings scatter.

A short description of this experiment: qHTS Assay for Inhibitors of the ERK Signaling Pathway using a Homogeneous Screening Assay; Stimulation with EGF.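 Note: plate controls were stimulated vehicle wells for no effect and unstimulated vehicle basal for full effect; nearly all actives have a fitted effect of over 55% in size.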 To be noted: HEK293-V1b, EGF-stimulated phospho-ERK AlphaScreen; at 11.5 µM (top of the series). In general terms: Quantitative high-throughput screening tests each substance at several concentrations.
As for `CN(CCCl)Cc1cc(Cl)c(NC2=NCCN2)c(Cl)c1`, the activity change, negative = inhibition was inactive: 16.3%.

These data come from PubChem BioAssay AID1454 (National Center for Advancing Translational Sciences (NCATS), 2008).
